This passage reports IC50 results from patent US9180120B2, “Substituted N-phenethyltriazoloneacetamides and use thereof” (Bayer Intellectual Property GmbH, priority 2010, dated 2015).

The chains behind the UniProt entries cited, without tags or fusion partners.
UniProt P30518, whole entry: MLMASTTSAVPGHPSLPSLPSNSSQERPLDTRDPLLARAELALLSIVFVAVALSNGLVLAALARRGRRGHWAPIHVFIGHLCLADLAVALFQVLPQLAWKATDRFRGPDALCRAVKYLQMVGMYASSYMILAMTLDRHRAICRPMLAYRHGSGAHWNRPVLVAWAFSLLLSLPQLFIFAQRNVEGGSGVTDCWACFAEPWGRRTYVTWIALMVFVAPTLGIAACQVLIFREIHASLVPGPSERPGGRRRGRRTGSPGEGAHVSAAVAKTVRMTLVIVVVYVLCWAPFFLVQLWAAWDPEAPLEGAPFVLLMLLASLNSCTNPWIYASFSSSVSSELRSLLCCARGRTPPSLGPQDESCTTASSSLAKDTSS
UniProt P37288, whole entry: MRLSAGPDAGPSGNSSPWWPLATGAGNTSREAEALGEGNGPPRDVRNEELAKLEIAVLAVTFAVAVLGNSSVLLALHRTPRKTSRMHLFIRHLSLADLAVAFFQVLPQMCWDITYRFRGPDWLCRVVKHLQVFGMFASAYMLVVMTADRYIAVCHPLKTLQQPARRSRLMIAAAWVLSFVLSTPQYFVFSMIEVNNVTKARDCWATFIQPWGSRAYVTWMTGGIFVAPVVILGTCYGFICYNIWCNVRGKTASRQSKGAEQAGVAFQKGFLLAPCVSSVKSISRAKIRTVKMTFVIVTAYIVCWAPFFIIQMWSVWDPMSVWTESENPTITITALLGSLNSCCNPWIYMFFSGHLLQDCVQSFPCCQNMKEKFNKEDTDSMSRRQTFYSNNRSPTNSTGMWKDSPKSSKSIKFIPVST

One assay has as its target human V2 receptor (Homo sapiens (Human), UniProt P30518). Put plainly: Cellular in vitro assay for determining the vasopressin receptor activity (aequorin luminescence, CHO cells, antagonism of [Arg8]-vasopressin). Format: cell-based. As to conditions: cell line transfected with the human V2 receptor; agonist [Arg8]-vasopressin; read-out: IC50 hV2. The text has this: (§1) • EDTA ethylenediaminetetraacetic acid • DMEM Dulbecco's Modified Eagle Medium • FCS foetal calf serum • HEPES 4-(2-hydroxyethyl)-1-piperazineethanesulphonic acid • SmGM Smooth Muscle Cell Growth Media • Tris-HCl 2-amino-2-(hydroxymethyl)-1,3-propanediol hydrochloride B-1. Cellular in vitro Assay for Determining the Vasopressin Receptor Activity
(§2) The identification of agonists and antagonists of the V1a and V2 vasopressin receptors from humans and rats and also the quantification of the activity of the compounds of the invention takes place using recombinant cell lines. […] In addition, the cells are stably transfected with the human or rat V1a or V2 receptors.
(§3) On the day before the assay, the cells are plated out in culture medium (DMEM, 10% FCS, 2 mM glutamine, 10 mM HEPES) in 384-well microtitre plates and kept in a cell incubator (96% humidity, 5% v/v CO2, 37° C.). On the day of the assay, the culture medium is replaced by a Tyrode solution (140 mM NaCl, 5 mM KCl, 1 mM MgCl2, 2 mM CaCl2, 20 mM glucose, 20 mM HEPES), which additionally contains the cofactor coelenterazine (50 μM), and the microtitre plate is then incubated for a further 3-4 hours. The test substances in various concentrations are placed for 10 to 20 minutes in the wells of the microtitre plate before the agonist [Arg^8]-vasopressin is added, and the resulting light signal is measured immediately in the luminometer.

A further assay addresses human V1a receptor (Homo sapiens (Human), UniProt P37288). Described as above. In kind it is cell-based. The following applies: cell line transfected with the human V1a receptor; agonist [Arg8]-vasopressin; read-out: IC50 hV1a.
Excerpt: as §1, §2, §3

As to `NC(=O)OCC(CNC(=O)Cn1nc(-c2ccc(Cl)cc2)n(C[C@H](O)C(F)(F)F)c1=O)c1ccccc1Cl` (single isomer, unassigned) [Example 6], the IC50 (as a rule, the concentration needed to halve the response being measured) at human V2 receptor was determined as 1 nM.

Take `CC(C)(C)OC(=O)NC(CNC(=O)Cn1nc(-c2ccc(Cl)cc2)n(C[C@H](O)C(F)(F)F)c1=O)c1cccc(Cl)c1Cl` (single isomer, unassigned) [Example 19]: the IC50 at human V1a receptor worked out at 13 nM.
